In brackets after ≈: the same amount, converted by molar mass.
Tested on: Bacteroides thetiotaomicron ATCC 29741
Assay: MIC by broth microdilution (CLSI), QC strain
Settings: ATCC29741

CCC[C@@H]1C[C@@H](C(=O)N[C@@H]([C@H]2O[C@H](SC)[C@H](O)[C@@H](O)[C@H]2O)[C@H](C)Cl)N(C)C1 [CLI, clindamycin] was tested, and the MIC was 4 µg/mL (≈ 9.41 µM).
